By IC50 is commonly meant the concentration needed to halve the response being measured. High values mean weaker potency in that assay, low ones greater potency in that assay.

For the experiment, the target named is Sodium- and chloride-dependent GABA transporter 1 (Mus musculus, UniProt P31648). The experiment is classed as cell-based, HEK293.

In the case of `O=C(O)C1CCCNC1` (stereo unspecified) [NIPECOTIC ACID], the IC50 is 8.51 µM.
